Assay results published in publication PMC8623179, “Design and Microwave Synthesis of New (5Z) 5-Arylidene-2-thioxo-1,3-thiazolinidin-4-one and (5Z) 2-Amino-5-arylidene-1,3-thiazol-4(5H)-one as New Inhibitors of Protein Kinase DYRK1A” (Pharmaceuticals, 2021).
Where two headings read alike, the source gives them in different places.

Assays:
DYRK1A = DYRK1A (Rattus norvegicus, UniProt Q63470); experiment: DYRK1A kinase assay
GSK-3α/β = GSK-3α/β kinase assay; type: biochemical, porcine; details: read-out: IC50 GSK3α/β
CDK5/p25 [1] = molecular target: T1, CDK5/p25 (Homo sapiens, UniProt Q00535); experiment: CDK5/p25 kinase assay; type: biochemical
T1 construct: made in house

Casein kinase 1 (CK1δ/ε) = experiment: CK1δ/ε kinase assay; type: biochemical, porcine; details: read-out: IC50 CK1
CDK5/p25 [2] = molecular target: T1, CDK5/p25; details: positive control, cited from earlier work

Measured: IC50

COc1ccc(/C=C2\SC(=S)NC2=O)cc1OC [Compound 3d, (5Z)-5-(3,4-Dimethoxybenzylidene)-2-thioxo-1,3-thiazolidin-4-one]
> 10 µM: DYRK1A | GSK-3α/β | CDK5/p25 [1] | Casein kinase 1 (CK1δ/ε)

COc1ccc2c(c1)[nH]c1c(C)nccc12 [Harmine]
> 10 µM: CDK5/p25 [2]; Table 4 | CDK5/p25 [2]; Table 5, same values as Table 4
